Data on two substances can be found in patent US12296019B2, “Compound for preparation of antibody-payload conjugate and use thereof” (AbTis Co., Ltd., priority 2019, dated 2025).

Experiment [1] concerns NCI-N87 gastric cancer cell line. The experiment can be described thus: anticancer efficacy test in NCI-N87 xenograft model. The format is in vivo, BALB/c nude mouse. The conditions noted are these: BALB/c nude mice, 5 mg/kg intravenous, once/2 days, three-time administration, 5-week observation. Here is the method:
A xenograft model was prepared by subcutaneously transplanting an NCI-N87 gastric cancer cell line overexpressing a target antigen, and an anticancer efficacy test was performed on the administered materials, by classifying the xenograft model into four groups. Since the BALB/c nude mouse used in the present experiment is deficient in T cells, cancer cells are easily transplanted into the mouse, so that the mouse was used as model suitable for an anticancer efficacy test using rodents.
A RPM11640 medium (Gibco, 22400-089) containing heat-inactivated 10% fetal bovine serum (FBS, Gibco, 10082-742) was put into a cell culture flask, and 1 vial of a human tumor cell line (NCI-N87 cell line) was added thereto and cultured in a 5% CO2 incubator at 37° C. […]
During the administration and observation period, the types of general symptoms including death, the date of onset and the degree of symptoms were observed once a day and recorded for each individual. […]
Body weight is measured on the day of group separation or the start of administration of the test material, and then twice/week after that.
The size of the tumor is measured 2 times/week for 5 weeks from the start date of administration of the test material. The major axis and minor axis of the tumor were measured using calipers, and the tumor size was calculated using the following equation. […]

A further experiment concerns BT474. The experiment can be described thus: in vitro cytotoxicity test, BT474. Format: cell-based. The conditions noted are these: Her2-overexpressing cells BT474. Here is the method: (§1) The efficacy of the antibody-payload conjugate (ADC, trastuzumab-DM1 conjugate) was evaluated based on the target marker level of cancer cells, and cytotoxicity experiments were performed using NCI-N87 and BT474 for the positive expression cell lines of the target antigen Her2 and MDA-MB-468 for the negative cell lines.

In the next experiment the test system is NCI-N87. Briefly: in vitro cytotoxicity test, NCI-N87. Format: cell-based, human. Here is the method: as §1

As for “trastuzumab-DM1 conjugate: trastuzumab with two norbornenes introduced by Compound II-FcBP(6Lys)-norbornene, conjugated with Tetrazine-PEG8-DM1; Drug Antibody Ratio=2”, the suppressing tumor growth result in experiment [1] is “excellent ability of suppressing tumor growth compared to Herceptin”. The half-inhibitory concentration (IC50) (in general, the concentration that gives 50% inhibition) is 0.0296 µg/mL with BT474 and 0.0821 µg/mL in the experiment on NCI-N87 (Her2-overexpressing cells NCI-N87). For the same substance, the “anticancer effect compared to the commercialized Herceptin ADC, Kadcyla” value in the experiment on NCI-N87 (NCI-N87 and BT474 cytotoxicity, comparison with Kadcyla) is reported as “equivalent level”.

Regarding “Herceptin: Herceptin (Trastuzumab), antibody [reference compound]”, the suppressing tumor growth entry in experiment [1] is given as “no tendency of suppressing tumor growth”.
